# Measured values reported in PubChem BioAssay AID504810 (National Center for Advancing Translational Sciences (NCATS), 2011).
# Protein sequences, listed by entry. Tags and fused reporters are not part of them.
# UniProt P16473, whole entry: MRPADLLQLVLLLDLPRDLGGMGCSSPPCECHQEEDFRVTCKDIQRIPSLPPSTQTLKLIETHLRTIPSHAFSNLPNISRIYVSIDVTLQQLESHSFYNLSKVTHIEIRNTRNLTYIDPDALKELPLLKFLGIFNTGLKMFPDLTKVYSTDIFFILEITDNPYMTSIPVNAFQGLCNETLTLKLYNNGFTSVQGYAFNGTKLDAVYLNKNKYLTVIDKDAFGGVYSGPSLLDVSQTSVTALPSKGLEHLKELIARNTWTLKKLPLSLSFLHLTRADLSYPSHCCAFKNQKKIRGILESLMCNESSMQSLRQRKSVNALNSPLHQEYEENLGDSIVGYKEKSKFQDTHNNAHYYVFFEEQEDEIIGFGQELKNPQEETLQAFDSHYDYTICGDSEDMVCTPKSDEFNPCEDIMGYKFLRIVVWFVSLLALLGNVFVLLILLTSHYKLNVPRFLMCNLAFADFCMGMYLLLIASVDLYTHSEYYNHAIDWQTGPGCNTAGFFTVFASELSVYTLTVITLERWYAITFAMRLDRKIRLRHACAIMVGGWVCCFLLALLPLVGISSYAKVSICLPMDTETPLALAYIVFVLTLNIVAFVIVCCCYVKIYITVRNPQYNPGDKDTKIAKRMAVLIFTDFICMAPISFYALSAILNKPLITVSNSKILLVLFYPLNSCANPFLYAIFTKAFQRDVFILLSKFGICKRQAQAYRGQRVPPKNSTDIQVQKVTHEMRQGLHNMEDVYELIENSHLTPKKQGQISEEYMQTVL
# The list shows a part of the results, in another mix than the full data. Some tests of the compounds listed are not included; inactive here does not mean inactive elsewhere. The source made the active and inactive calls.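 How the source made its calls: active means activity change below a set negative limit, meaning inhibition stronger than a set level (cut at about -70% in these data); inconclusive means activity change between two set negative limits; inactive means the rest.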
# Target: Thyrotropin receptor (Homo sapiens) (UniProt P16473)
# Assay: Antagonists of the Thyroid Stimulating Hormone Receptor: HTS campaign
# Settings: TSHR-expressing cells, TSH-stimulated cAMP HTRF, 2 h; at 11.5 µM; active compounds read low
# From the text: The thyroid-stimulating hormone receptor (TSHR) is a member of the 7 trans-membrane-spanning receptor (7TMR) family of cell surface receptors. TSHR-mediated hyperthyroidism is important in thyroid pathology. The development of small molecule antagonists of TSHR may lead to therapeutic approaches for TSHR-mediated hyperthyroidism caused by constitutively activating mutations or stimulating auto-antibodies associated with Graves' disease. Graves' disease is the leading cause of hyperthyroidism and is caused by autoantibodies that stimulate TSHR (TsAbs) causing thyroid growth and unregulated overproduction of thyroid hormones and existing treatments have liabilities (agranulocytosis). In addition, TSHRs are known to be expressed in multiple extrathyroidal tissues including bone, brain, kidney, testis, fat and cells of the immune system but the role of the TSHR in these tissues is not clear. Therefore, TSHR antagonists/inverse agonists could be used as probes of extrathyroidal TSHR function. Finally, TSHR inverse agonists, which are a subclass of antagonists that inhibit agonist-independent (or basal or constitutive) TSHR signaling, could be used to inhibit TSH-independent signaling in patients with recurrent or metastatic thyroid cancer who are receiving thyroid hormone to suppress TSH. In collaboration between scientist from the NCGC and the NIDDK, a miniaturized HTRF high-throughput screen was developed. It's a cell based assay, where an anti cAMP antibody contains a fluorescent cryptate tag (excitation 337 nm; emission 620 nm) and the acceptor is cAMP-d2 (excitation 620 nm; emission 665 nm). When antibody and cAMP-d2 interact and are excited by a 337 nm light, a FRET occurs resulting in emission at 665 nm. The assay is competition between cAMP-d2 and cAMP (from the cell lysate). The homogeneous protocol allows for one step dispense after stimulation that is automation friendly. NIH Chemical Genomics Center [NCGC] NIH Molecular Libraries Probe Centers Network [MLPCN] MLPCN Grant: MH090855-01 Assay Submitter (PI): Marvin Gerhengorn
# 1. 3ul of 200 TSHR freshly harvested cells/well are dispensed into a 1536 TC-treated white solid bottom plate. 2. Through pintool addition, 23nl of compounds and control in 100% DMSO are added to the plate. 3. Then 1ul of EC80 TSH (4nM final) is added to the plate. 4. Assay is incubated at 37 deg C for 2 hours. 5. 2ul of cAMP antibody diluted 1:20 in lysis buffer is added. 6. Immediately following, 2ul of d2 diluted 1:20 in HBSS is added seperately. 7. The assay is incubated for 30 minutes at ambient room temperature. 8. The result is obtained by using a ViewLux read-out with HTRF settings.
# On the % scale 0 is the no-effect control and ±100 the full control effect.
row,SMILES,"activity change, negative = inhibition"
1,COc1ccc(Br)c(C(=O)NCC2(N3CCCCC3)CCCCC2)c1,inactive: 19%
2,CC(C)Oc1ccc(C(=O)NCC2(N(C)C)CCCCC2)cc1,inactive: 5.01%
3,CN(C)c1cccc(C(=O)NCC2(N(C)C)CCCCC2)c1,inactive: -10.7%
4,O=C(OC1CN2CCC1CC2)C(CO)(c1ccccc1)c1ccccc1 (centres undefined),inactive: 11.1%
5,COc1ccc(Cl)cc1C(=O)NCC1(N(C)C)CCCCC1,inactive: 4.8%
6,COc1cccc(C(=O)NCC2(N3CCCCC3)CCCCC2)c1,inactive: 3.98%
7,O=C(NCC1(N2CCCCC2)CCCCC1)c1cccc(Cl)c1,inactive: 9.92%
8,CN(C)C1(CNC(=O)c2ccc(Br)cc2)CCCCC1,inactive: 4.55%
9,COc1cc(C(=O)NCC2(N(C)C)CCCCC2)c([N+](=O)[O-])cc1OC,inactive: 15%
10,O=C(NCC1(N2CCCCC2)CCCCC1)c1cc(F)c(F)cc1Cl,inactive: -2.74%
11,C=CCN1CCN(CCOC(=O)C(O)(c2ccccc2)c2ccccc2)CC1,inactive: 19.4%
12,COc1ccc(C(=O)NCC2(N(C)C)CCCCC2)cc1,inactive: 8.42%
13,O=C(NCC1(N2CCCCC2)CCCCC1)c1cccc(Br)c1,inactive: 9.51%
14,Cc1cc(C(=O)NCC2(N3CCCCC3)CCCCC2)ccc1[N+](=O)[O-],inactive: 14.8%
15,CCN1CCCC(OC(=O)C2(O)c3ccccc3C=Cc3ccccc32)C1 (centres undefined),inactive: -5.04%
16,CN(C)C1CCCC1OC(=O)C(O)(c1ccccc1)c1ccccc1 (centres undefined),inactive: 5.43%
17,CN(C)c1ccc(C(=O)NCC2(N(C)C)CCCCC2)cc1,inactive: -7.92%
18,Cc1ccccc1C(=O)NCC1(N2CCCCC2)CCCCC1,inactive: 9.57%
19,COc1cc(SC)ccc1C(=O)NCC1(N(C)C)CCCCC1,inactive: -5.29%
20,CCN(CC)CC(C)C(C)OC(=O)C(O)(c1ccccc1)c1ccccc1 (centres undefined),inactive: -6.25%
21,CC(C)N1C(=O)CC2(CCN(CCOC(=O)C(O)(c3ccccc3)c3ccccc3)CC2)C1=O,inactive: 38.2%
22,Cc1ccc(C(=O)NCC2(N3CCCCC3)CCCCC2)cc1,inactive: 8.15%
23,O=C(NCC1(N2CCCCC2)CCCCC1)c1cc([N+](=O)[O-])ccc1Cl,inactive: 6.17%
24,CN1[C@@H]2CC[C@H]1CC(OC(=O)C(O)(c1ccccc1)c1ccccc1)C2 (some centres undefined),inactive: -10.4%
